Source: patent publication US8552176B2 (priority 2010, dated 2013)

Assays:
Test in all cases: Cell proliferation assay (GI50 cytotoxicity)
Assay type in all cases: cell-based, human
SF-268 = conditions: read-out: GI50 SF-268 CNS, 7 d incubation
DU-145 = conditions: read-out: GI50 DU-145 prostate, 7 d incubation
MCF7 = conditions: read-out: GI50 MCF7 breast, 7 d incubation
NCI-H460 = conditions: read-out: GI50 NCI-H460 lung, 7 d incubation
A549 = conditions: read-out: GI50 A549 lung (+p53), 7 d incubation
HT29 = conditions: read-out: GI50 HT29 colorectal, 7 d incubation
HCT-15 = conditions: read-out: GI50 HCT-15 colorectal, 7 d incubation
SKOV3 = conditions: read-out: GI50 SKOV3 ovary, 7 d incubation
H1299 = conditions: read-out: GI50 H1299 lung (−p53), 7 d incubation
Hep3b = conditions: read-out: GI50 Hep3b liver, 7 d incubation

NNC(=O)CCCc1ccc(N(CCCl)CCCl)cc1
GI50 (SF-268): 1500 nM
GI50 (DU-145): 4800 nM
GI50 (MCF7): 2300 nM
GI50 (NCI-H460): 6900 nM
GI50 (A549): 4300 nM
GI50 (HT29): 4200 nM
GI50 (HCT-15): 3000 nM
GI50 (SKOV3): 4300 nM
GI50 (H1299): 1300 nM
GI50 (Hep3b): 3100 nM

CONCCCCc1ccc(N(CCCl)CCCl)cc1
GI50 (SF-268): 1700 nM
GI50 (DU-145): 3200 nM
GI50 (MCF7): 1900 nM
GI50 (NCI-H460): 4400 nM
GI50 (A549): 3200 nM
GI50 (HT29): 2300 nM
GI50 (HCT-15): 1100 nM
GI50 (SKOV3): 2900 nM
GI50 (H1299): 1800 nM
GI50 (Hep3b): 2300 nM
